# Data as given in PubChem BioAssay AID624297 (National Center for Advancing Translational Sciences (NCATS), 2012).
# Only a part is listed here, and it is no random draw. Inconclusive results are not listed. Active and inactive are the calls of the source. Calls come from the whole dose curve; as a rule, active = well fitted activation curve with a large enough effect; inconclusive = small, poorly fitted or top-dose-only effect; inactive = no such curve, though single readings can be large or run the other way.
# Assay: A quantitative high throughput screen for small molecules that induce DNA re-replication in SW480 colon adenocarcinoma cells. For re-replication activation: % of control where 0% means no effect. Note: nearly all actives have a fitted effect of over 55% in size.
# Settings: Hoechst DNA content imaging, 48 h; series mostly up to 46.1 µM; re-replication activation: at the top concentration
# Potency is the fitted concentration of half-maximal effect.
Structure (SMILES),re-replication activation,Potency
COc1ccccc1CNC(=O)COC(=O)C(O)(c1ccccc1)c1ccccc1,inactive: 0.895%,
CC1(CBr)Cn2c(nc3ccccc3c2=O)S1 (stereo unspecified),inactive: -6.45% [at 9.22 µM],
CN(C(=O)Cc1ccc(Cl)c(Cl)c1)[C@@H]1CCCC[C@H]1N1CCCC1,inactive: -0.875%,
CC(C)/C=N\N=C(\N)N[N+](=O)[O-],inactive: -1.51%,
COP1(=S)c2c(C)nn(CCC#N)c2N=C(c2ccc(F)cc2)N1C (stereo unspecified),inactive: -13.5%,
O=C(Nc1ccncc1[N+](=O)[O-])c1ccc([N+](=O)[O-])cc1[N+](=O)[O-],inactive: 0.445%,
O=C(COc1ccccc1)OC1CN2CCC1CC2 (stereo unspecified),inactive: 0.911%,
O=C(OC1CN2CCC1CC2)c1cccc([N+](=O)[O-])c1 (stereo unspecified),inactive: 1.56%,
CCC(C)N(CC(C)C)C(=S)SC(NC(C)=O)C(Cl)(Cl)Cl (stereo unspecified),inactive: -1.66%,
CC1CCNP(=O)(N(CCCl)CCCl)O1 (stereo unspecified),inactive: -0.185%,
CCOC(=O)Nc1ccc([As](=O)(O)O)c(O)c1,inactive: -6.03%,
Cc1cc(SC(NC(=O)c2ccccc2)C(Cl)(Cl)Cl)nc(C(C)C)n1 (stereo unspecified),inactive: 2.44%,
CCCCOc1ccc(C(=O)NCC2(N3CCCCC3)CCCCC2)cc1OC,inactive: -3.71%,
CCOC(=O)Nc1cccc([As](=O)(O)O)c1,inactive: -3.54%,
O=[N+]([O-])c1ccc(Nc2ccc(Oc3ccc([N+](=O)[O-])cc3[N+](=O)[O-])cc2)c([N+](=O)[O-])c1,inactive: -6.97%,
Cc1cc(SC(NC=O)C(Cl)(Cl)Cl)ncn1 (stereo unspecified),inactive: 6.93%,
O=P(Nc1ccccn1)(c1cccc2ccccc12)c1cccc2ccccc12,inactive: -3.88%,
COc1cc(C(=O)NCC2(N3CCOCC3)CCCCC2)ccc1OCC(C)C,inactive: 11.8%,

Structure (SMILES),re-replication activation,Potency
O=[N+]([O-])c1ccc(-c2cc([N+](=O)[O-])c(O)c([N+](=O)[O-])c2)cc1,inactive: -2.1%,
O=[As](O)(c1ccc(O)cc1)c1ccccc1O,inactive: -63.5%,
C[As](=O)(O)c1cccc(C(=O)O)c1,inactive: -4.47%,
Cc1ccc(OP(=O)(Nc2ccc([N+](=O)[O-])cn2)Oc2ccc(C)cc2)cc1,inactive: -5.28%,
CC(C)c1ccc(OP(=O)(Nc2ccccn2)Oc2ccccc2F)cc1 (stereo unspecified),inactive: 14.4%,
COC(=O)C1(C)COP(=O)(N2CCCCCC2)OC1 (stereo unspecified),inactive: 2.29%,
ClCCSc1nnc(-c2cccnc2)o1,inactive: -5.07%,
O=C(OC1CN2CCC1CC2)c1cccc2[nH]cnc12 (stereo unspecified),inactive: -2.88%,
CCN(CC)C(=S)SC(NC=O)C(Cl)(Cl)Cl (stereo unspecified),,active: 10.3 µM
CC(C)NC(=O)NP(=O)(Oc1ccccc1)Oc1ccccc1,inactive: -9.1%,
Cc1cc(=O)[nH]c(N[N+](=O)[O-])n1,inactive: -2.46%,
O=C(OC1CN2CCC1CC2)C12CC3CC(CC(C3)C1)C2 (stereo unspecified),inactive: -4.03%,
COc1cc(I)ccc1[As](=O)(O)O,inactive: -8.12%,
COc1ccc2nc(NP(=O)(c3ccccc3)c3ccccc3)sc2c1,inactive: -0.726%,
O=P1(N(CCCl)CCCl)OCCCN1CCCl (stereo unspecified),inactive: -1.71%,
O=P1(N(CCCl)CCCl)Nc2ccccc2N1,inactive: -3.68%,
COc1ccc(N/C(=N/P(=O)(N2CCOCC2)N2CCOCC2)N2CCOCC2)cc1,inactive: -2.94%,
O=[N+]([O-])c1cc(Oc2ccc([N+](=O)[O-])cc2C(F)(F)F)cc([N+](=O)[O-])c1,inactive: -4.64%,
